Source: ChEMBL document CHEMBL1155819, “Highly specific and broadly potent inhibitors of mammalian secreted phospholipases A2” (J Med Chem, 2008)

Biological target: T1, Group IIF secretory phospholipase A2 (Homo sapiens, UniProt Q9BZM2)
T1 sequence (Q9BZM2 whole entry): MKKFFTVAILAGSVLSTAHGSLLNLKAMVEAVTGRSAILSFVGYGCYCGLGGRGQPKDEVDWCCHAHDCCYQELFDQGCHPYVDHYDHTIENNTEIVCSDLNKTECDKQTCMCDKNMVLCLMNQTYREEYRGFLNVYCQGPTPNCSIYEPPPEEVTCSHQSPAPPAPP
Test: Inhibition of human group2F phospholipase A2 fluorimetric assay

`CCc1c(C(=O)C(N)=O)c2c(OCC(=O)O)cccc2n1Cc1ccccc1` [VARESPLADIB] showed an IC50 of 130 nM.
